Earlier results in US20160008277A1, “CO-PACKAGED DRUG PRODUCTS” (Lightlake Therapeutics Inc., priority 2014, published 2016).

Legend:
[1] = adults; cited from earlier work
[2] = neonatal study; cited from earlier work

Q: Which results are given for `C=CCN1CC[C@]23c4c5ccc(O)c4O[C@H]2C(=O)CC[C@@]3(O)[C@H]1C5.Cl` [naloxone hydrochloride, 17-allyl-4,5a-epoxy-3,14-dihydroxymorphinan-6-one hydrochloride]?
A: serum half-life (mean) [1]: 64 ± 12 min; mean plasma half-life [2]: 3.1 ± 0.5 h
